Earlier results in patent US11612641B2, “Method for treating Huntingtons's disease” (UNIVERSITY OF IOWA RESEARCH FOUNDATION, priority 2014, dated 2023).

Biological target: mTOR (Homo sapiens, UniProt P42345)
Settings: including functions resistant to rapamycin (Thoreen et al., 2009); cited from earlier work

SMILES: CCC(=O)N1CCN(c2ccc(-n3c(=O)ccc4cnc5ccc(-c6cnc7ccccc7c6)cc5c43)cc2C(F)(F)F)CC1 [Torin1]
- inhibition of TOR functions: potently inhibits
